Measurements as given in publication PMC4229301, “A Polymeric Prodrug of 5-Fluorouracil-1-Acetic Acid Using a Multi-Hydroxyl Polyethylene Glycol Derivative as the Drug Carrier” (PLoS ONE, 2014).

Legend:
[1] = Pharmacokinetics study after i.v. injection in rats
[2] = In vivo distribution in H22 tumor-bearing mice
[3] = 20 mg/kg 5-FA or 189 mg/kg 5-FA-PAE

multi-hydroxyl polyethylene glycol-5-fluorouracil-1-acetic acid [5-FA-PAE]
unreleased 5-FA-PAE at 24 h as share of the concentration at 5 min [1]: about 1.1%
V (apparent volume of distribution) [1, 3]: 1.172 ± 0.358 mL/g
VRT 0-t [1, 3]: 190.2±19.7 h^2
VRT 0-∞ [1, 3]: 335.8±79.4 h^2
detection in all organs and tumor ([2]; 72 h after injection): detectable
concentration in tumor ([2]; i.v. 20 mg/kg 5-FA or equivalent 5-FA-PAE, 15 min after injection (maximum)): 4.22 ± 2.3 µg/g
concentration in spleen ([2]; i.v. 189 mg/kg 5-FA-PAE, 24 h (peak), as 5-FA): 21.68 ± 10.83 µg/g
